Consider 2 compounds from patent US10464907B2, “Compound having HSP90 inhibitory activity or pharmaceutically acceptable salt thereof, and medical use thereof” (priority 2016, dated 2019).

This experiment addresses HSP90α (Homo sapiens (Human), UniProt P07900). Nature of the experiment: Fluorescence polarization assay, binding ability to HSP90, benzamide compounds. On the procedure:
1 M dithiothreitol (DTT), 10 mg/m: BGG (bovine gamma globulin) were added to hexafluorobenzene (HFB) buffer (20 mM HEPES pH 7.3, 50 mM KCl, 5 mM MgCl2, 20 mM Na2MoO4, 0.01% NP4O, 3rd distilled water) and mixed. Then, 100 nM […] (GA)-FITC (Fluorescein isothiocyanate) was added and reacted at room temperature for 10 minutes. Each 100 μL of the mixture was dispensed into the control wells of a 96-well plate, 2 μL of HSP90α was added to the remaining mixture, and each 100 μL of the other wells was dispensed. […] The binding ability of the compound to HSP90 was expressed as mP (millipolarization unit=1000 mP unit).
(In general: Polarisation of emitted light reports the rotation of a fluorescent probe.)

The IC50 is the point on the concentration scale where inhibition reaches its midpoint. Read a low IC50 as greater potency. For `O=C(NCc1ccccc1)c1cc(Cl)c(O)cc1O` [Compound 14a, N-Benzyl-5-chloro-2,4-dihydroxybenzamide], the half-inhibitory concentration (IC50) is 6.68 µM. To `CC(C)c1cc(C(=O)N(C)Cc2ccccc2)c(O)cc1O` [Compound 21g, N-benzyl-2,4-dihydroxy-5-isopropyl-N-methylbenzamide] belongs 0.033 µM.
